Test results from article PMC8429170 (Cellular and Molecular Life Sciences: CMLS, 2021).

Experiments:
GPR1-eYFP (human) [1] = molecular target: T1, GPR1-eYFP (human) (UniProt P46091)
T1 sequence: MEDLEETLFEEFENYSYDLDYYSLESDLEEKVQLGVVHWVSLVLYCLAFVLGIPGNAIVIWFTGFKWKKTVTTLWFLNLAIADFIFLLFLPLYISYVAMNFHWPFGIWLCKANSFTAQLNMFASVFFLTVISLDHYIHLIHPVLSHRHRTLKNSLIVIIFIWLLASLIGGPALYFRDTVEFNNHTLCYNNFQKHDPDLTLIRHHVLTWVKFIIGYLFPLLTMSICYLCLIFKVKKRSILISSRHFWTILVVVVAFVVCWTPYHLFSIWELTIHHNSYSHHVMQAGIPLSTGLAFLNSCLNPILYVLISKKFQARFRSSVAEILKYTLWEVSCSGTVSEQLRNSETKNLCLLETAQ

GPR1 = molecular target: T2, GPR1 (Homo sapiens, UniProt P46091); type: cell-based; conditions: COS-7 cells, GPR1-eYFP and Rluc8-Arr3; at least two independent experiments in quadruplicates
T2 construct: expressed in transfected cells; host or cells: COS-7, transient
Procedure: Arrestin recruitment was characterized by measuring the bioluminescence resonance energy transfer (BRET) ratio between luciferase-tagged arrestin3 and either GPR1-eYFP or CMKLR1-eYFP as described previously. In brief, COS-7 cells in 75 cm^2 cell culture flasks were transiently transfected overnight with 7800 ng GPR1-eYFP or CMKLR1-eYFP in pVitro2 and 200 ng Rluc8-Arr3 in pcDNA3 using MetafectenePro according to the manufacturer’s protocol. […] For kinetic measurements, cells were stimulated with agonist in buffer or buffer alone, and fluorescence was measured for 20 min using a Tecan Infinite M 200 Reader (Tecan, Männerdorf, Switzerland) using the filter sets Green1 (YFP emission, luminescence 520–570 nm) and Blue1 (luciferase luminescence 370–480 nm). For concentration–response curves, cells were stimulated with agonist or blank, and luminescence was measured after 10 min. BRET signal was calculated as the ratio of fluorescence divided by luminescence, netBRET signal was calculated by subtracting the BRET signal of unstimulated wells from the respective samples.

GPR1-eYFP (human) [2] = molecular target: T1, GPR1-eYFP (human); remark: listed apart in the source

Molecule: [N–C]-c(chemerin-9) (peptide)
EC50 of arrestin3 recruitment to GPR1-eYFP (BRET) (GPR1-eYFP (human) [1]): 132 nM

Molecule: Chem^149-157 (chemerin-9) (peptide)
EC50 of arrestin3 recruitment to GPR1-eYFP (BRET with Rluc8-Arr3, COS-7 cells) (GPR1-eYFP (human) [2]): 1.9 nM

Other lines, results leading:

pEC50 ± SEM (GPR1): < 6
Molecule: C[C@H](NC(=O)[C@H](Cc1ccccc1)NC(=O)[C@H](CCC(N)=O)NC(=O)CNC(=O)[C@@H]1CCCN1)C(=O)N[C@@H](Cc1ccccc1)C(=O)N[C@@H](CO)C(=O)O [Chem^151−157]

pEC50 ± SEM (GPR1): < 6
Molecule: C[C@H](NC(=O)[C@@H]1CCCN1C(=O)[C@H](Cc1ccccc1)NC(=O)[C@H](Cc1ccccc1)NC(=O)[C@H](CO)NC(=O)[C@H](Cc1ccc(O)cc1)NC(=O)[C@H](Cc1ccccc1)NC(=O)[C@@H](N)CCC(N)=O)C(=O)NCC(=O)O [scr2C9]

pEC50 ± SEM (GPR1): 8.57 ± 0.16
B1: ChemF156 (ligand)
chain: ELTEAQRRGLQVALEEFHKHPPVQWAFQETSVESAVDTPFPAGIFVRLEFKLQQTSCRKRDWKKPECKVRPNGRKRKCLACIKLGSEDKVLGRLVHCPIETQVLREAEEHQETQCLRVQRAGEDPHSFYFPGQFAF

One block for each molecule: values may come before it.
